Ki data for one compound are collected here from ChEMBL document CHEMBL2375349, “Discovery of subtype selective muscarinic receptor antagonists as alternatives to atropine using in silico pharmacophore modeling and virtual screening methods” (2013).

For orientation: Ki means a dissociation constant, usually derived from enzyme kinetics or from competition with a known ligand. A higher Ki goes with a looser hold on the target.

The experiment is described as follows: Displacement of [3H] N-methylscopolamine from muscarinic acetylcholine receptor in guinea pig brain homogenate after 30 mins by scintillation counting analysis. In general terms: In a radioligand displacement assay an active substance lowers the binding of a labelled ligand.

Molecules are shown by their SMILES.

`O=[N+]([O-])c1cc([N+](=O)[O-])c(Nc2ccc(Br)cc2Br)c([N+](=O)[O-])c1`: the Ki is 5.7 µM.
